# Experimental data published in PubChem BioAssay AID1948 (National Center for Advancing Translational Sciences (NCATS), 2009).
# Only a part is listed here, and it is no random draw. Calls of active or inactive are those of the source. Calls come from the whole dose curve; as a rule, active = well fitted activation curve with a large enough effect; inconclusive = small, poorly fitted or top-dose-only effect; inactive = no such curve, though single readings can be large or run the other way.
# Assay: qHTS Assay for Compounds that Induce Erasure of Genomic Imprints;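 note: 0% = negative control wells on the plate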
# Settings: mouse ES Peg3-LacZ reporter, beta-gal luminescence, 40 h
# [1] = at 60.7 µM (top of the series) unless noted
smiles,measurement,setting,value
[N-]=[N+]=NCC(O)CN=[N+]=[N-] (stereo unspecified),"activity change, positive = activation",[1],inactive: -14.3% [at 10.9 µM]
CN(C(=O)Cc1ccc(Cl)c(Cl)c1)[C@H]1CCCC[C@@H]1N1CCCC1,"activity change, positive = activation",[1],inactive: -11.5% [middle of 6 runs]
NCC[C@@H](N)CSP(=O)(O)O,"activity change, positive = activation",[1],inactive: -7.63% [at 10.9 µM]
Cc1c2non([O-])c-2c(C)[n+](=O)[n+]1[O-],"activity change, positive = activation",[1],inactive: -40.5%
O=[N+]([O-])c1ccc(C[As](=O)(O)O)cc1,"activity change, positive = activation",[1],inactive: 2.59% [at 10.9 µM]
O=C(CO)Nc1ccc([As](=O)(O)O)cc1,"activity change, positive = activation",[1],inactive: -4.12% [at 10.9 µM]
CC(=O)C1=CCCC2CCC1N2 (stereo unspecified),"activity change, positive = activation",[1],inactive: 6.7%
CCc1nc2c(n1)c1c(non1O)c1c2no[n+]1[O-],"activity change, positive = activation",[1],inactive: -31.3%
O=C(OC1CN2CCC1CC2)c1cccc(Cl)c1 (stereo unspecified),"activity change, positive = activation",[1],inactive: -21%
[N-]=[N+]=Nc1ccc([As](=O)(O)O)cc1,"activity change, positive = activation",[1],inactive: -6.66% [at 10.9 µM]
C[C@@H](O)COc1ccc([As](=O)(O)O)cc1N,"activity change, positive = activation",[1],inactive: -2.8% [at 10.9 µM]
CN1CCC[C@H](OC(=O)C(c2ccccc2)c2ccccc2)C1,"activity change, positive = activation",[1],inactive: -13.6% [at 10.9 µM]
c1nnnn1CCn1cnnn1,"activity change, positive = activation",[1],inactive: -0.829%
O=P(Nc1nccs1)(c1ccccc1)c1ccccc1,"activity change, positive = activation",[1],inactive: -9.52%
O=P1(Nc2nc3ccc(Cl)cc3s2)COc2ccccc2O1 (stereo unspecified),"activity change, positive = activation",[1],inactive: 7.49%
COC(=O)c1cc2c(s1)N=C(c1ccccc1)N(C)P2(=O)N1CCOCC1 (stereo unspecified),"activity change, positive = activation",[1],inactive: -6.76%
CN(C(=O)Cc1ccc(Cl)c(Cl)c1)[C@@H]1CCCC[C@@H]1N1CCCC1,"activity change, positive = activation",[1],inactive: -9.89%
CCOP1(=S)c2c(C)nn(CCC#N)c2N=C(c2ccc(F)cc2)N1C (stereo unspecified),"activity change, positive = activation",[1],inactive: -12.8%
NC(=O)Nc1ccc([As](=O)(O)O)cc1,"activity change, positive = activation",at 16.8 µM (top of the series),inactive: 1.25%
same,"activity change, positive = activation",at 60.7 µM (top of the series),inactive: 2.87%
O=[As](O)(O)c1ccc([As](=O)(O)O)cc1,"activity change, positive = activation",[1],inactive: -5.73% [at 10.9 µM]
CCOP1(=S)c2c(C)nn(CCC#N)c2N=C(c2ccccc2F)N1C (stereo unspecified),"activity change, positive = activation",[1],inactive: -11.3%
O=P(Nc1nccs1)(c1ccccc1)c1nc2ccccc2s1 (stereo unspecified),"activity change, positive = activation",[1],inactive: -8.2%
O=C(CC(=O)c1ccccc1)O[C@H]1CN2CCC1CC2,"activity change, positive = activation",[1],inactive: -17.6% [at 10.9 µM]
NS(=O)(=O)Cc1ccc([As](=O)(O)O)cc1,"activity change, positive = activation",[1],inactive: -8.48% [at 10.9 µM]
CN(C(=O)Cc1ccc(Cl)c(Cl)c1)[C@@H]1CC[C@]2(CCCO2)C[C@H]1N1CCCC1,"activity change, positive = activation",[1],inactive: -11.7%
CN(C(=O)Cc1ccc(Cl)c(Cl)c1)[C@@H]1CCCC[C@H]1N1CCCC1,"activity change, positive = activation",[1],inactive: -4.88%
Clc1n[nH]nc1-c1nn[nH][15n]1,"activity change, positive = activation",[1],inactive: -0.0809%
CN(CCCl)Cc1cc(Cl)c(NC2=NCCN2)c(Cl)c1,"activity change, positive = activation",[1],inactive: -60.8%
O=P1(Nc2ccccn2)COc2ccccc2OC1,"activity change, positive = activation",[1],inactive: 4.5%
O=P1(Nc2ccc(Br)cn2)COc2ccccc2OC1,"activity change, positive = activation",[1],inactive: 6.9%
O=P1(Nc2ncccn2)COc2ccccc2OC1,"activity change, positive = activation",[1],inactive: -8.03%
Cc1nn(-c2ccccc2)c2c1P(=O)(N1CCOCC1)N(C)C(c1ccccc1)=N2 (stereo unspecified),"activity change, positive = activation",[1],inactive: 4.72%
CN(N=O)C(=N)N[N+](=O)[O-],"activity change, positive = activation",[1],inactive: -5.21%
O=C(O)[C@@H](O)c1ccc([As](=O)(O)O)cc1,"activity change, positive = activation",[1],inactive: 12.7% [at 10.9 µM]
O=C(COc1ccccc1)OC1CN2CCC1CC2 (stereo unspecified),"activity change, positive = activation",[1],inactive: 4.47%
COP1(=S)c2c(C)nn(CCC#N)c2N=C(c2ccc(F)cc2)N1C (stereo unspecified),"activity change, positive = activation",[1],inactive: -15.9%
NC(=O)Nc1cc([As](=O)(O)O)cc(I)c1O,"activity change, positive = activation",[1],inactive: -5.03% [at 10.9 µM]
O=C(OC1CN2CCC1CC2)C12CC3CC(CC(C3)C1)C2 (stereo unspecified),"activity change, positive = activation",[1],inactive: -25%
[N-]=[N+]=NCC(N)=O,"activity change, positive = activation",[1],inactive: 0.27% [at 10.9 µM]
O=[As]c1ccc(S(=O)(=O)NCCO)cc1 (stereo unspecified),"activity change, positive = activation",[1],inactive: -8.22% [at 10.9 µM]
